Reference: PubChem BioAssay AID1205 (EPA DSSTox, 2008)
Active and inactive are the calls of the source.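 How the source made its calls: active means tumour findings in long-term animal cancer tests in more than one sex, species or organ; inactive means no tumour finding and more than one negative test.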

Assay: DSSTox (CPDBAS) Carcinogenic Potency Database Summary MultiCellCall Results
Conditions: animal carcinogenicity bioassays, multi-cell call summary

| SMILES | outcome |
| --- | --- |
| C[As](=O)(O)O | inactive; multisex inactive; multispecies inactive |
| CCN(N=O)C(=N)N[N+](=O)[O-] | active; multisite active |
| COP(=O)(OC)N1CCOCC1 | active; multisex active |
| O=C1C2CC=CCC2C(=O)N1SC(Cl)(Cl)C(Cl)Cl (stereo not drawn) | active; multisite active; multisex active; multispecies active |
| NC(=O)Nc1ccc([As](=O)(O)O)cc1 | inactive; multisex inactive |
| COP(=S)(OC)SCCNC(C)=O | inactive; multisex inactive |
| C1CN1 | active; multisite active; multisex active |
| CN(N=O)C(=N)N[N+](=O)[O-] | active; multisite active; multisex active; multispecies active |
